Three variants from IntAct's records for PubMed 25605870 can be followed below.

Sequences and labels used below:
B1: Apoptosis-associated speck-like protein containing a CARD (Homo sapiens), Q9ULZ3 (parent)
chain: MGRARDAILDALENLTAEELKKFKLKLLSVPLREGYGRIPRGALLSMDALDLTDKLVSFYLETYGAELTANVLRDMGLQEMAGQLQAATHQGSGAAPAGIQAPPQSAAKPGLHFIDQHRAALIARVTNVEWLLDALYGKVLTDEQYQAVRAEPTNPSKMRKLFSFTPAWNWTCKDLLLQALRESQSYLVEDLERS

This test covers variants of B1. Conditions: with casp1_human CASP1, P29466.
As to Y146F, the “effect of a mutation on the interaction” value was “decreasing interaction strength”.

Y187F: the “effect of a mutation on the interaction” value was “decreasing interaction strength”.

Regarding Y146F;Y187F, the “effect of a mutation on the interaction” value is given as “decreasing interaction strength”.
